# Binding of CDR-mutated scFvs to a peptide of the spike HR2 region

Values reported by Engelhart et al. 2022, doi:10.1038/s41597-022-01779-4 (FLAb copy).

Antigen: PDVDLGDISGINAS, a 14-residue peptide of the SARS-CoV-2 spike HR2 region.

Ab-14 is the parent antibody, in scFv form: VH, then a (GGGGS)3 linker, then VL. The light chain is unchanged in all variants.
VH: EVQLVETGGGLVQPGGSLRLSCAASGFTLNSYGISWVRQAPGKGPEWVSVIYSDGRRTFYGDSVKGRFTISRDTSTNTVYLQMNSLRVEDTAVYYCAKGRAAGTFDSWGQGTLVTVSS
VL: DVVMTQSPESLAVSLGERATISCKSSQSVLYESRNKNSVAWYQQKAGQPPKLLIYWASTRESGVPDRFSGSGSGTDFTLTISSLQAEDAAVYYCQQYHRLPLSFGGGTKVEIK

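The library (AAYL49) carries one to three amino acid substitutions per variant, with no insertions or deletions. Affinity was read by AlphaSeq, a pooled yeast mating assay with surface-displayed partners. Mating (16 h, 30 °C) was followed by selection of diploids and sequencing of their barcodes. Scores were corrected for input abundance and mapped to Kd with protein pairs of known affinity run in the same pool. Mating was done three times.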

Variants are written as CDR1, CDR2 and CDR3 of the heavy chain (limits as in the source). Parent: GFTLNSYGIS, VIYSDGRRTFYGDSVK, GRAAGTFDS. Numbers give log10(Kd / nM), so 0 is 1 nM and 3 is 1 µM. Smaller is tighter. A mean of the replicates is given; it leaves out those without a signal. A pair that was not seen in that replicate is written "nd"; this usually means weak binding, but a binder can also be missed. Empty control strains, which show no peptide, gave a signal in 15% of pairings with library AAYL49; the median was 4.06 and 95% of these signals were weaker than 2.83. No background was subtracted. The control count says in how many pairings with the empty strains this scFv gave a signal, with their mean in brackets. For reference, the parent read 0.65 as the reference entry and 4.11 (one replicate of three) as a member of this library.

{"CDR-H1": "KFTTNSYHIS", "CDR-H2": "VIYSDGRRTFYGDSVK", "CDR-H3": "GRAAGTFDS", "replicates, log10 nM": "nd 4.67 nd", "mean log10 Kd (nM)": "4.67", "empty controls": "2/9 (4.13)"}
{"CDR-H1": "GFTLNSYGMS", "CDR-H2": "VGYSDGRRTFYGDSVK", "CDR-H3": "GRAAGTFQS", "replicates, log10 nM": "nd nd nd", "mean log10 Kd (nM)": "nd", "empty controls": "0/9"}
{"CDR-H1": "GFTLYGYGMS", "CDR-H2": "VIYSDGRRTFYGDSVK", "CDR-H3": "GRAAGTFDS", "replicates, log10 nM": "nd nd nd", "mean log10 Kd (nM)": "nd", "empty controls": "0/9"}
{"CDR-H1": "GFTLNSYGIS", "CDR-H2": "VIYSDGRRTFYGMSVK", "CDR-H3": "GRAAGTFGS", "replicates, log10 nM": "nd nd nd", "mean log10 Kd (nM)": "nd", "empty controls": "0/9"}
{"CDR-H1": "GFTLNSLGIS", "CDR-H2": "VWYSDGERTFYGDSVK", "CDR-H3": "GRAAGTFDS", "replicates, log10 nM": "nd nd nd", "mean log10 Kd (nM)": "nd", "empty controls": "0/9"}
{"CDR-H1": "GFTCNSYGIS", "CDR-H2": "VIYSDGRRTFYGDSVK", "CDR-H3": "QRHAGTFDS", "replicates, log10 nM": "nd nd nd", "mean log10 Kd (nM)": "nd", "empty controls": "0/9"}
{"CDR-H1": "GFTLNSYGIS", "CDR-H2": "VIYSDGRRTFAGDSVI", "CDR-H3": "GCAAGTFDS", "replicates, log10 nM": "nd nd nd", "mean log10 Kd (nM)": "nd", "empty controls": "0/9"}
{"CDR-H1": "GFTLVSYGIS", "CDR-H2": "VIYSDGRRTFIGDSVK", "CDR-H3": "GRAAGTFDA", "replicates, log10 nM": "5.20 nd 4.01", "mean log10 Kd (nM)": "4.61", "empty controls": "3/9 (4.30)"}
{"CDR-H1": "GFTLNKYGIS", "CDR-H2": "VIYSDFRRTFYGDSVK", "CDR-H3": "GMAAGTFDS", "replicates, log10 nM": "5.27 4.65 5.33", "mean log10 Kd (nM)": "5.08", "empty controls": "7/9 (4.60)"}
{"CDR-H1": "GFTLNSYGIP", "CDR-H2": "VIYSNGRRTFYGDSVK", "CDR-H3": "GVAAGTFDS", "replicates, log10 nM": "nd nd 3.42", "mean log10 Kd (nM)": "3.42", "empty controls": "0/9"}
{"CDR-H1": "GFTLNSYGIS", "CDR-H2": "VIYEDGRRTFYCDSVK", "CDR-H3": "GNAAGTFDS", "replicates, log10 nM": "nd nd nd", "mean log10 Kd (nM)": "nd", "empty controls": "1/9 (3.76)"}
{"CDR-H1": "GFTGNSYGIS", "CDR-H2": "VIYSDGRRTFYGDSVK", "CDR-H3": "GRRAGTFDP", "replicates, log10 nM": "6.54 5.09 4.29", "mean log10 Kd (nM)": "5.31", "empty controls": "6/9 (4.92)"}
{"CDR-H1": "GFTLNSYGIS", "CDR-H2": "VIYSDGRRNFYGDSVK", "CDR-H3": "GRAAGNFSS", "replicates, log10 nM": "4.57 5.20 4.54", "mean log10 Kd (nM)": "4.77", "empty controls": "5/9 (4.32)"}
{"CDR-H1": "GFYLNSYGIS", "CDR-H2": "VIYSDGRRTFYGDSVK", "CDR-H3": "GQAAGTFDS", "replicates, log10 nM": "1.16 1.24 1.38", "mean log10 Kd (nM)": "1.26", "empty controls": "1/9 (4.35)"}
{"CDR-H1": "KFTLNSYGIS", "CDR-H2": "VIYIIGRRTFYGDSVK", "CDR-H3": "GRAAGTFDS", "replicates, log10 nM": "nd nd nd", "mean log10 Kd (nM)": "nd", "empty controls": "0/9"}
{"CDR-H1": "GFTLNSYHIS", "CDR-H2": "VIYSDGRRTFYGDSFK", "CDR-H3": "ERAAGTFDS", "replicates, log10 nM": "3.64 nd 2.95", "mean log10 Kd (nM)": "3.29", "empty controls": "1/9 (1.81)"}
{"CDR-H1": "GFTLNSYGIS", "CDR-H2": "VIYVDGRRTFYGDSVK", "CDR-H3": "GRRAGWFDS", "replicates, log10 nM": "1.53 1.20 0.90", "mean log10 Kd (nM)": "1.21", "empty controls": "0/9"}
{"CDR-H1": "GFTLNSYGIS", "CDR-H2": "VGYSDGRRLFYGDSVK", "CDR-H3": "GRAAGAFDS", "replicates, log10 nM": "nd nd nd", "mean log10 Kd (nM)": "nd", "empty controls": "2/9 (4.27)"}
{"CDR-H1": "GWTLMSYGIS", "CDR-H2": "VIYRDGRRTFYGDSVK", "CDR-H3": "GRAAGTFDS", "replicates, log10 nM": "nd 3.55 nd", "mean log10 Kd (nM)": "3.55", "empty controls": "1/9 (4.11)"}
{"CDR-H1": "GFTLNSYGIS", "CDR-H2": "VIYSDGRRTFQGDSVK", "CDR-H3": "NRAAGTFDS", "replicates, log10 nM": "3.43 5.10 nd", "mean log10 Kd (nM)": "4.26", "empty controls": "1/9 (3.86)"}
{"CDR-H1": "GFILNSYGII", "CDR-H2": "VIYSDGRRTFYGDSVK", "CDR-H3": "GRAAGGFDS", "replicates, log10 nM": "nd nd nd", "mean log10 Kd (nM)": "nd", "empty controls": "3/9 (4.17)"}
{"CDR-H1": "GFTLNSYGIS", "CDR-H2": "VIYSPGRRTFYGDSVK", "CDR-H3": "GRAKGTGDS", "replicates, log10 nM": "nd nd nd", "mean log10 Kd (nM)": "nd", "empty controls": "0/9"}
{"CDR-H1": "GFTLNSYGIS", "CDR-H2": "VIYSDGRRTFYGDSPS", "CDR-H3": "GRAAGTFTS", "replicates, log10 nM": "nd nd nd", "mean log10 Kd (nM)": "nd", "empty controls": "0/9"}
{"CDR-H1": "GFEWNSYGGS", "CDR-H2": "VIYSDGRRTFYGDSVK", "CDR-H3": "GRAAGTFDS", "replicates, log10 nM": "nd 4.30 nd", "mean log10 Kd (nM)": "4.30", "empty controls": "0/9"}
{"CDR-H1": "GFTLNSYGIS", "CDR-H2": "VIYSDGREFFYLDSVK", "CDR-H3": "GRAAGTFDS", "replicates, log10 nM": "nd nd nd", "mean log10 Kd (nM)": "nd", "empty controls": "1/9 (3.55)"}
{"CDR-H1": "GFWLNSYGIS", "CDR-H2": "VIYSDGRRTFYGDSIK", "CDR-H3": "GRDAGTFDS", "replicates, log10 nM": "nd nd nd", "mean log10 Kd (nM)": "nd", "empty controls": "1/9 (3.92)"}
{"CDR-H1": "GFTLNSYGIS", "CDR-H2": "VIYSDGRRTCYGDSVK", "CDR-H3": "GRAAGTHYS", "replicates, log10 nM": "nd 3.95 nd", "mean log10 Kd (nM)": "3.95", "empty controls": "1/9 (3.51)"}
{"CDR-H1": "GFTLNSYWIW", "CDR-H2": "VIYSDGRRTFYGDSVK", "CDR-H3": "GIAAGTFDS", "replicates, log10 nM": "4.59 3.78 5.51", "mean log10 Kd (nM)": "4.62", "empty controls": "7/9 (5.03)"}
{"CDR-H1": "GFTLNSYGVS", "CDR-H2": "VTYSDGRRKFYGDSVK", "CDR-H3": "GRAAGTFDS", "replicates, log10 nM": "3.71 3.26 nd", "mean log10 Kd (nM)": "3.48", "empty controls": "3/9 (4.14)"}

From the list, the first 4 with no signal in any replicate:

{"CDR-H1": "GFTLNSYGMS", "CDR-H2": "VGYSDGRRTFYGDSVK", "CDR-H3": "GRAAGTFQS", "replicates, log10 nM": "nd nd nd", "mean log10 Kd (nM)": "nd", "empty controls": "0/9"}
{"CDR-H1": "GFTLYGYGMS", "CDR-H2": "VIYSDGRRTFYGDSVK", "CDR-H3": "GRAAGTFDS", "replicates, log10 nM": "nd nd nd", "mean log10 Kd (nM)": "nd", "empty controls": "0/9"}
{"CDR-H1": "GFTLNSYGIS", "CDR-H2": "VIYSDGRRTFYGMSVK", "CDR-H3": "GRAAGTFGS", "replicates, log10 nM": "nd nd nd", "mean log10 Kd (nM)": "nd", "empty controls": "0/9"}
{"CDR-H1": "GFTLNSLGIS", "CDR-H2": "VWYSDGERTFYGDSVK", "CDR-H3": "GRAAGTFDS", "replicates, log10 nM": "nd nd nd", "mean log10 Kd (nM)": "nd", "empty controls": "0/9"}